Data taken from PubChem BioAssay (NCI).
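Results reflect a 48-hour exposure of cells in 96-well plates to compound at five concentrations. Abbreviation: GI50, concentration required for 50% inhibition of growth. At the TGI there is no net growth.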

Key:
Assay in all cases: NCI anticancer screen, dose series, 48 h
CCRF-CEM leukemia = system: CCRF-CEM leukemia
HL-60(TB) leukemia = system: HL-60(TB) leukemia
HS 578T breast = system: HS 578T breast
K-562 leukemia = system: K-562 leukemia
LOX IMVI melanoma = system: LOX IMVI melanoma
MCF7 breast = system: MCF7 breast
MDA-MB-435 = system: MDA-MB-435
MDA-N = system: MDA-N
MOLT-4 leukemia = system: MOLT-4 leukemia
NCI-H522 lung = system: NCI-H522 lung
RPMI-8226 leukemia = system: RPMI-8226 leukemia
SR leukemia = system: SR leukemia
T-47D breast = system: T-47D breast
786-0 renal = system: 786-0 renal
A498 renal = system: A498 renal
A549 NSCLC = system: A549 NSCLC
ACHN renal = system: ACHN renal
BT-549 breast = system: BT-549 breast
CAKI-1 renal = system: CAKI-1 renal
COLO 205 colon = system: COLO 205 colon
DU-145 prostate = system: DU-145 prostate
EKVX NSCLC = system: EKVX NSCLC
HCC-2998 colon = system: HCC-2998 colon
HCT-116 colon = system: HCT-116 colon
HCT-15 colon = system: HCT-15 colon
HOP-62 NSCLC = system: HOP-62 NSCLC
HOP-92 NSCLC = system: HOP-92 NSCLC
HT29 colon = system: HT29 colon
IGROV1 ovarian = system: IGROV1 ovarian
KM12 colon = system: KM12 colon
MALME-3M melanoma = system: MALME-3M melanoma
MDA-MB-231 breast = system: MDA-MB-231 breast
NCI-H226 lung = system: NCI-H226 lung
NCI-H23 lung = system: NCI-H23 lung
NCI-H322M lung = system: NCI-H322M lung
NCI-H460 lung = system: NCI-H460 lung
NCI/ADR-RES ovarian = system: NCI/ADR-RES ovarian
OVCAR-3 ovarian = system: OVCAR-3 ovarian
OVCAR-4 ovarian = system: OVCAR-4 ovarian
OVCAR-5 ovarian = system: OVCAR-5 ovarian
OVCAR-8 ovarian = system: OVCAR-8 ovarian
PC-3 prostate = system: PC-3 prostate
RXF 393 renal = system: RXF 393 renal
SF-268 CNS = system: SF-268 CNS
SF-295 CNS = system: SF-295 CNS
SF-539 CNS = system: SF-539 CNS
SK-MEL-2 melanoma = system: SK-MEL-2 melanoma
SK-MEL-28 melanoma = system: SK-MEL-28 melanoma
SK-MEL-5 melanoma = system: SK-MEL-5 melanoma
SK-OV-3 ovarian = system: SK-OV-3 ovarian
SN12C renal = system: SN12C renal
SNB-19 CNS = system: SNB-19 CNS
SNB-75 CNS = system: SNB-75 CNS
SW-620 colon = system: SW-620 colon
TK-10 renal = system: TK-10 renal
U251 CNS = system: U251 CNS
UACC-257 melanoma = system: UACC-257 melanoma
UACC-62 melanoma = system: UACC-62 melanoma
UO-31 renal = system: UO-31 renal

For `CC(=O)OC[C@]12CCC(C)=C[C@H]1O[C@@H]1[C@H](O)[C@@H](OC(C)=O)[C@@]2(C)[C@@]12CO2`, the GI50 (CCRF-CEM leukemia) was under 10 nM, the TGI (CCRF-CEM leukemia) was under 10 nM and the TGI (HL-60(TB) leukemia) was over 100000 nM. The TGI (HS 578T breast) was 29.8 nM, the GI50 (K-562 leukemia) was 17.9 nM and the TGI (LOX IMVI melanoma) was 17.6 nM. For the same compound, the GI50 (MCF7 breast) was 16 nM, the GI50 (MDA-MB-435) was 21.4 nM and the TGI (MDA-MB-435) was 101 nM. For the same compound, the GI50 (MDA-N) was 14.8 nM, the TGI (MDA-N) was 24 nM and the TGI (MOLT-4 leukemia) was 176 nM. For the same compound, the TGI (NCI-H522 lung) was 23.8 nM, the TGI (RPMI-8226 leukemia) was over 100000 nM and the GI50 (SR leukemia) was under 10 nM. The TGI (SR leukemia) was under 10 nM and the TGI (T-47D breast) was 30.4 nM.

In the case of `Nc1c([N+](=O)[O-])cc([N+](=O)[O-])c(-c2nnc(-c3c([N+](=O)[O-])cc([N+](=O)[O-])c(N)c3[N+](=O)[O-])s2)c1[N+](=O)[O-]`, the GI50 (786-0 renal) was 351 nM, the TGI (786-0 renal) was 1130 nM and the GI50 (A498 renal) was 2470 nM. It also gave a TGI (A498 renal) of 6030 nM, a GI50 (A549 NSCLC) of 4870 nM and a TGI (A549 NSCLC) of 20400 nM. The GI50 (ACHN renal) was 1760 nM, the TGI (ACHN renal) was 3330 nM and the GI50 (BT-549 breast) was 860 nM. It also gave a TGI (BT-549 breast) of 2240 nM, a GI50 (CAKI-1 renal) of 2310 nM and a TGI (CAKI-1 renal) of 6210 nM. For the same compound, the GI50 (CCRF-CEM leukemia) was 449 nM, the TGI (CCRF-CEM leukemia) was 8400 nM and the GI50 (COLO 205 colon) was 1430 nM. The TGI (COLO 205 colon) was 2830 nM, the GI50 (DU-145 prostate) was 2480 nM and the TGI (DU-145 prostate) was 7050 nM. The GI50 (EKVX NSCLC) was 2480 nM, the TGI (EKVX NSCLC) was 6770 nM and the GI50 (HCC-2998 colon) was 1430 nM. It also gave a TGI (HCC-2998 colon) of 2910 nM, a GI50 (HCT-116 colon) of 1100 nM and a TGI (HCT-116 colon) of 2400 nM. The GI50 (HCT-15 colon) was 1220 nM, the TGI (HCT-15 colon) was 2760 nM and the GI50 (HL-60(TB) leukemia) was 320 nM. For the same compound, the TGI (HL-60(TB) leukemia) was 1500 nM, the GI50 (HOP-62 NSCLC) was 1780 nM and the TGI (HOP-62 NSCLC) was 3200 nM. For the same compound, the GI50 (HOP-92 NSCLC) was 1470 nM, the TGI (HOP-92 NSCLC) was 2800 nM and the GI50 (HS 578T breast) was 2040 nM. It also gave a TGI (HS 578T breast) of 5460 nM, a GI50 (HT29 colon) of 1150 nM and a TGI (HT29 colon) of 2560 nM. The GI50 (IGROV1 ovarian) was 1700 nM, the TGI (IGROV1 ovarian) was 3170 nM and the GI50 (K-562 leukemia) was 301 nM. It also gave a TGI (K-562 leukemia) of 1050 nM, a GI50 (KM12 colon) of 1120 nM and a TGI (KM12 colon) of 2380 nM. The GI50 (LOX IMVI melanoma) was 225 nM, the TGI (LOX IMVI melanoma) was 593 nM and the GI50 (MALME-3M melanoma) was 1620 nM. The TGI (MALME-3M melanoma) was 3330 nM, the GI50 (MCF7 breast) was 345 nM and the TGI (MCF7 breast) was 1170 nM. For the same compound, the GI50 (MDA-MB-231 breast) was 1270 nM, the TGI (MDA-MB-231 breast) was 2520 nM and the GI50 (MDA-MB-435) was 1170 nM. The TGI (MDA-MB-435) was 2460 nM, the GI50 (MDA-N) was 953 nM and the TGI (MDA-N) was 2170 nM. The GI50 (MOLT-4 leukemia) was 682 nM, the TGI (MOLT-4 leukemia) was 3100 nM and the GI50 (NCI-H226 lung) was 2260 nM. The TGI (NCI-H226 lung) was 6540 nM, the GI50 (NCI-H23 lung) was 1710 nM and the TGI (NCI-H23 lung) was 3460 nM. For the same compound, the GI50 (NCI-H322M lung) was 1900 nM, the TGI (NCI-H322M lung) was 4750 nM and the GI50 (NCI-H460 lung) was 1970 nM. The TGI (NCI-H460 lung) was 4340 nM, the GI50 (NCI-H522 lung) was 1380 nM and the TGI (NCI-H522 lung) was 2920 nM. For the same compound, the GI50 (NCI/ADR-RES ovarian) was 2280 nM, the TGI (NCI/ADR-RES ovarian) was 8010 nM and the GI50 (OVCAR-3 ovarian) was 915 nM. The TGI (OVCAR-3 ovarian) was 2230 nM, the GI50 (OVCAR-4 ovarian) was 1430 nM and the TGI (OVCAR-4 ovarian) was 2730 nM. The GI50 (OVCAR-5 ovarian) was 1690 nM, the TGI (OVCAR-5 ovarian) was 3120 nM and the GI50 (OVCAR-8 ovarian) was 600 nM. It also gave a TGI (OVCAR-8 ovarian) of 1460 nM, a GI50 (PC-3 prostate) of 1300 nM and a TGI (PC-3 prostate) of 2690 nM. It also gave a GI50 (RPMI-8226 leukemia) of 1790 nM, a TGI (RPMI-8226 leukemia) of 5470 nM and a GI50 (RXF 393 renal) of 603 nM. The TGI (RXF 393 renal) was 1900 nM, the GI50 (SF-268 CNS) was 1970 nM and the TGI (SF-268 CNS) was 4530 nM. For the same compound, the GI50 (SF-295 CNS) was 1910 nM, the TGI (SF-295 CNS) was 3940 nM and the GI50 (SF-539 CNS) was 1510 nM. The TGI (SF-539 CNS) was 4350 nM, the GI50 (SK-MEL-2 melanoma) was 1640 nM and the TGI (SK-MEL-2 melanoma) was 3280 nM. The GI50 (SK-MEL-28 melanoma) was 1660 nM, the TGI (SK-MEL-28 melanoma) was 3220 nM and the GI50 (SK-MEL-5 melanoma) was 1700 nM. For the same compound, the TGI (SK-MEL-5 melanoma) was 3420 nM, the GI50 (SK-OV-3 ovarian) was 2550 nM and the TGI (SK-OV-3 ovarian) was 7690 nM. For the same compound, the GI50 (SN12C renal) was 537 nM, the TGI (SN12C renal) was 1170 nM and the GI50 (SNB-19 CNS) was 3020 nM. For the same compound, the TGI (SNB-19 CNS) was 12300 nM, the GI50 (SNB-75 CNS) was 1260 nM and the TGI (SNB-75 CNS) was 2520 nM. It also gave a GI50 (SR leukemia) of 725 nM, a TGI (SR leukemia) of 2920 nM and a GI50 (SW-620 colon) of 416 nM. It also gave a TGI (SW-620 colon) of 1550 nM, a GI50 (T-47D breast) of 1940 nM and a TGI (T-47D breast) of 4820 nM. For the same compound, the GI50 (TK-10 renal) was 3140 nM, the TGI (TK-10 renal) was 8230 nM and the GI50 (U251 CNS) was 551 nM. The TGI (U251 CNS) was 1570 nM, the GI50 (UACC-257 melanoma) was 1580 nM and the TGI (UACC-257 melanoma) was 3010 nM. The GI50 (UACC-62 melanoma) was 739 nM, the TGI (UACC-62 melanoma) was 2090 nM and the GI50 (UO-31 renal) was 2180 nM. For the same compound, the TGI (UO-31 renal) was 4720 nM.
